{
  "sequences": {"note": "Protein sequences, listed by entry. Tags and fused reporters are not part of them. Lines headed by an entry give the natural chain unless they say otherwise; changes in a name come on top.", "UniProt Q932Y6, whole entry": "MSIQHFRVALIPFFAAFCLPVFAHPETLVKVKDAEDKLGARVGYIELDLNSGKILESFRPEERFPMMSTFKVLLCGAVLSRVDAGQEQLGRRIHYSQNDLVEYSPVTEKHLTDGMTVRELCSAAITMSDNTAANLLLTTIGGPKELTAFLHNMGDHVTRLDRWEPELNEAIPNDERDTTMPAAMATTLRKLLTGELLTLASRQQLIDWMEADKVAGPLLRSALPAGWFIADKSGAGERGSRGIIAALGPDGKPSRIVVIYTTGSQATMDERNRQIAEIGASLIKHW", "UniProt P04406": "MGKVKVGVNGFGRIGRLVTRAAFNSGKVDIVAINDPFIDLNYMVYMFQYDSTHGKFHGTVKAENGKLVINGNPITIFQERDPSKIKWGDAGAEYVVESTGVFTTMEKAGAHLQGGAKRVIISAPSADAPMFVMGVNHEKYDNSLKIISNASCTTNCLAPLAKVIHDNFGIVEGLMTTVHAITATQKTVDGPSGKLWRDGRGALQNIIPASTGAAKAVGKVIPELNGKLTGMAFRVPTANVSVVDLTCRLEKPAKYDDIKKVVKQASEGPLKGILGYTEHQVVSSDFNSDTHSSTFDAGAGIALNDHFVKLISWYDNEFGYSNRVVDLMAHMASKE"},
  "source": "ChEMBL document CHEMBL1201862",
  "about": "“PubChem BioAssay data set” (2004)",
  "key": {"[1]": {"target": "Beta Lactamase (Pseudomonas aeruginosa, UniProt Q932Y6)", "assay": "beta-lactamase reporter inhibitor potency, dose response, artefact control for TLR9-MyD88 binding inhibitor project, BLA reporter cells, FRET fluorescence (AID 588341);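 also: cell based assay in CHO-K1 cells stably expressing beta-lactamase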", "format": "cell-based"}, "[2]": {"target": "Glyceraldehyde-3-phosphate dehydrogenase (Homo sapiens, UniProt P04406)"}, "[3]": {"assay": "cells", "format": "functional"}},
  "note": "Active and inactive are the calls of the source.",
  "data": [
    {"molecule": "CCCCNc1ccc2c3c(cccc13)C(=O)N(CCCC)C2=O", "values": [
      {"measurement": "IC50", "setting": "[1]", "value": "active: 3.07 µM"}
    ]},
    {"molecule": "COc1ccc(Br)cc1S(=O)(=O)Nc1cccnc1", "values": [
      {"measurement": "IC50", "setting": "[2]", "value": "> 100 µM (not active)"}
    ]},
    {"molecule": "Cc1[nH]n(-c2ccccc2)c(=O)c1/C=N/c1ccc(S(=O)(=O)Nc2nccs2)cc1", "values": [
      {"measurement": "IC50", "setting": "[3]", "value": "active: 11.3 µM"}
    ]}
  ]
}
